According to patent US8003083B2, “Benzylidene malonamide and salt thereof, ultraviolet ray absorbent, and agent for external application to the skin” (Shiseido Company, Ltd., priority 2006, dated 2011):

Experiment: Photostability test, sunlight exposure
Assay type: physicochemical
Settings: solution exposed to sunlight for two weeks, 80 MJ/m^2
Procedure: A solution of the ultraviolet absorbent of the present invention was exposed to sunlight for two weeks (sunlight exposure level 80 MJ/m^2) and then the residual ratio and changes in the appearance were investigated and the ultraviolet absorption spectrum was measured (solvent: water, concentration 10 ppm, optical path length 1 cm) by using a spectrophotometer; the ultraviolet absorption spectrum was integrated over a range of 290-400 nm to obtain the area value, which was compared with the value before the sunlight exposure.
Changes in the residual ratio and the area value of the ultraviolet absorption spectrum were evaluated based on the following criteria.
Δ: 70% or more and less than 90% of the value before the sunlight exposure.
X: Less than 70% of the value before the sunlight exposure.

In the case of `COc1cc(O)c(C(=O)c2ccccc2)cc1S(=O)(=O)[O-].[Na+]` [sodium 2-hydroxy-4-methoxy-5-sulfoxonium benzophenone, reference compound], the Residual ratio was “◯ (90% or more and less than 95% of the value before the sunlight exposure.)”.
